Here are results for 2 molecules from patent US8076329B2, “Histamine H3-receptor ligands and their therapeutic applications” (Bioprojet, priority 2005, dated 2011).

Protein sequences, listed by entry. Tags and fused reporters are not part of them.
UniProt Q9Y5N1, whole entry: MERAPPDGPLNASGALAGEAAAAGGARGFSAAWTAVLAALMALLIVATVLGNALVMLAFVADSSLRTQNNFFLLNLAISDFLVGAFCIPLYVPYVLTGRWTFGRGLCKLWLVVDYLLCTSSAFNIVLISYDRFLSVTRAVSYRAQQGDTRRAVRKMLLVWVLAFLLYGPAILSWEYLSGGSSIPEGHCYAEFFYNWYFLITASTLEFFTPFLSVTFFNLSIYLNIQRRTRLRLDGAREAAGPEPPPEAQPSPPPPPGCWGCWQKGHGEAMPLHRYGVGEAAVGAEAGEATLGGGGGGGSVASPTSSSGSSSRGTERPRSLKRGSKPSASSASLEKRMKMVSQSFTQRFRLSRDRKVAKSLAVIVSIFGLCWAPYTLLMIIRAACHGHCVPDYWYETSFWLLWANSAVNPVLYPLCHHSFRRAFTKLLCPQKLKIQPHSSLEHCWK
UniProt P10635, whole entry: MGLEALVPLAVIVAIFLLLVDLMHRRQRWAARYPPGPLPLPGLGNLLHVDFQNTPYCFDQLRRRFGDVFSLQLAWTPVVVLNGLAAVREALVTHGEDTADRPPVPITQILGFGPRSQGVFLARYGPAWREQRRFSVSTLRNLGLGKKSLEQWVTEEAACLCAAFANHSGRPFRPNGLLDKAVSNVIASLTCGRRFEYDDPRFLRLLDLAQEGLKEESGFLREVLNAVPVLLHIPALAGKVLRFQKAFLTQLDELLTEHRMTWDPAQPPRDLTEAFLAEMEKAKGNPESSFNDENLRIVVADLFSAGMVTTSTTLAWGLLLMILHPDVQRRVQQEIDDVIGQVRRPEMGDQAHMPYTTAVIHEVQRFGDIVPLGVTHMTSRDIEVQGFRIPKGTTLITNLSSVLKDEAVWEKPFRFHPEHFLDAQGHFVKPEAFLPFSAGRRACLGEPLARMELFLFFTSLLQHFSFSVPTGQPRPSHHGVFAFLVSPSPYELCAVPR
UniProt P08684, whole entry: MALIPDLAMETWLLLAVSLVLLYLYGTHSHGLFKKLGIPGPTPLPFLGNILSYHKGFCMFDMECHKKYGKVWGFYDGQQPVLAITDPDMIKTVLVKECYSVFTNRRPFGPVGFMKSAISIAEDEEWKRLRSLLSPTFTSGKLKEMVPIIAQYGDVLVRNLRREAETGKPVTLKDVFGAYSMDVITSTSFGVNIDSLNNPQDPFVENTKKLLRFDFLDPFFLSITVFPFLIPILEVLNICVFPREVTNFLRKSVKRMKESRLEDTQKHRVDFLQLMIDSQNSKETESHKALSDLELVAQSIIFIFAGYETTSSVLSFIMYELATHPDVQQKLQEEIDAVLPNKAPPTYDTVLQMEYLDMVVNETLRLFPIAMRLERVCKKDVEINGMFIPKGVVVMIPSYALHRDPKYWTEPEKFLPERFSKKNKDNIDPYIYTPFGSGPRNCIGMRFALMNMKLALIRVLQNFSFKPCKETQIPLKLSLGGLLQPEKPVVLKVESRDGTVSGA

Data set [1] addresses human histamine H3 receptors (Homo sapiens, UniProt Q9Y5N1). Nature of the data set: H3 binding ([125I]iodoproxyfan displacement on membranes). Conditions: comparative examples: compounds of WO 00/06254; tested form: oxalate.
A further data set concerns the target CYP2D6 (Homo sapiens, UniProt P10635). Nature of the data set: Cytochrome inhibition, fluorometric microtiter plate assay. The note with it: @ 1 μM; comparative examples: compounds of WO 00/06254; tested form: oxalate.
Another data set has as its target CYP3A4 (Homo sapiens, UniProt P08684). The description is as above. Conditions: comparative examples: compounds of WO 00/06254, tested form: oxalate.

`Clc1ccc2c(NCCc3ccc(OCCCN4CCCCC4)cc3)ccnc2c1`: the Ki – broadly, a measure of affinity in units of concentration, obtained from inhibition or displacement – in data set [1] came to 0.00053 µM. This molecule gave a CYP2D6 cytochrome inhibition at CYP2D6 of 67% @ 1 μM. For the same molecule, on CYP3A4 (@ 1 μM), the CYP3A4 cytochrome inhibition came to 52% @ 1 μM.

Turning to `Clc1ccc(CCCOCCCN2CCCCC2)cc1`, the IC50 on CYP3A4 (read-out: CYP3A4 cytochrome inhibition (IC50, concentrations for 50% inhibition)) came to 13 µM.
